Results on 3 compounds are retold here after patent EP4834905A1, “CRYSTAL FORM OF ACID SALT OF SULFOXIMINE COMPOUND, PREPARATION METHOD THEREFOR, AND USE THEREOF” (dated 2026).

Data set [1] is described as follows: Solid stability of the hydrochloride crystal form I (XRPD, HPLC, stoichiometric ratio, visual colour) after one week of storage. The conditions noted are these: for Solid (XRPD) / Purity, Solid (HPLC) / Color: 1 week, Solid; for Purity, Solid (HPLC): initial purity 99.6%; for Color: visual observation. The protocol: An open container containing the hydrochloride crystal form I of the compound of formula I-1 was placed at 25 °C/60% RH for one week. A sealed container containing the hydrochloride crystal form I of the compound of formula I-1 was placed at 60 °C for one week. Stability samples under these conditions were subjected to XRPD, HPLC, and stoichiometric ratio testing, and visual observation was performed for color changes of the samples. Table 33 Solid Stability of Hydrochloride Crystal Form I of the Compound of Formula I-1

Data set [2] is described as follows: Solubility in dissolution media at 37 °C (HPLC of supernatant, pH of supernatant, XRPD of residual solid) after 2 h, 8 h and 24 h. The conditions noted are these: for Residual solid XRPD: equilibrated for 24 h; for Solubility: target concentration 2 mg/mL (calculated as free-base form). The protocol: 10 mg of the free-base crystal form A of the compound of formula I-1 or 10.8 mg (equivalent to 10 mg of the free-base anhydrous form) of the hydrochloride crystal form I of the compound of formula I-1 was weighed and placed in an 8 mL glass vial. 5 mL of dissolution medium was added. The resulting suspension/clear solution was stirred at 37 °C and 400 rpm for 2 h, 8 h, and 24 h, then the resulting suspension/clear solution was centrifuged at 37 °C and 14,000 rpm for 5 min. The solubility of the supernatant was determined by HPLC, and the pH of the supernatant was measured by a pH meter, and the residual solid was detected by XRPD. Table 34 Solubility testing of the free-base crystal form A of compound of formula I-1

A further data set has as its system SNU-16. Put plainly: Cell proliferation inhibition, CellTiter-Glo luminescent cell viability assay, FGFR2 background cells. Particulars: read-out: IC50 value, inhibition of proliferation, SNU-16, 72-96 hours incubation. The protocol: (§1) This experiment investigates the compound's ability to inhibit cell proliferation by assessing its effect on in vitro cell viability in seven tumor cell lines (KATO III, NCI-H716, SNU-16, AN3CA, MFE-296, SUM52PE, MFM223).
(§2) The cell lines were cultured in an incubator at 37 °C and 5% CO2 under standard conditions, passaged periodically, and cells in the logarithmic growth phase were used for plating. The test compounds were prepared as 10 mM solutions using DMSO.
(§3) Preparation of the compound storage plate (tube): A 4-fold serial dilution with DMSO was set up from the highest to the lowest concentration to generate a total of 9 concentrations, and the internal reference compound was likewise subjected to 4-fold serial dilution to generate another 9 concentrations. Next, the compound working solutions were prepared as follows: 98 µL of cell culture medium was added to each well of a flat-bottomed 96-well transparent plate, and 2 µL of compound was pipetted from the compound storage plate to the cell culture medium in the 96-well plate. 2 µL of DMSO was added to the solvent control well. After the compound or DMSO was added, it was mixed thoroughly by pipetting.
(§4) Cell seeding and drug administration: 1) Cells were stained with trypan blue and live cells were counted, cell viability must be ≥90%; 2) The cell concentration was adjusted to an appropriate level; 3) 95 µL of cell suspension was added to each well of the compound assay plate (6,000-10,000 cells/well), and cell-free medium (containing 0.1% DMSO) was added to the Min control wells; 4) Compound administration in the compound assay plate: 5 µL of a 20× compound stock solution was added to the cell culture plate as shown in Table 1. 5 µL of a DMSO-cell culture medium mixture was added to the Max control well. The final DMSO concentration was 0.1%; 5) The culture plate was incubated in a 37 °C, 5% CO2 incubator for 72-96 hours.
(§5) The assay was performed according to the instructions for the Promega CellTiter-Glo Luminescent Cell Viability Assay Kit (Promega-G7573): 1) CellTiter-Glo buffer was thawed and equilibrated to room temperature; 2) CellTiter-Glo substrate was equilibrated to room temperature; 3) CellTiter-Glo buffer was added to one bottle of CellTiter-Glo substrate to dissolve the substrate, thereby the CellTiter-Glo working solution was prepared; 4) Slow vortex was performed to ensure complete dissolution; 5) The cell culture plate was taken and placed for 10 minutes to be equilibrated to room temperature; 6) 50 µL of CellTiter-Glo working solution (equivalent to half the volume of the cell culture medium in each well) was added to each well; 7) The plate was shaken on a shaking incubator for 2 minutes to induce cell lysis; 8) The plate was placed at room temperature for 10 minutes to stabilize the luminescence signal; 9) The luminescence signal was measured using a SpectraMax Paradigm reader.
(§6) The cell proliferation inhibition rate data is calculated using the following formula: Inhibition Rate (Inh%) = 100−(RLUDrug−RLUMin)/(RLUMax−RLUMin) × 100%. [formula]
(§7) The inhibition rates corresponding to different compound concentrations was calculated in Excel, then GraphPad Prism software was used to plot inhibition rate curves and the relevant parameters were calculated, including the maximum and minimum inhibition rates, IC50 value. Table 36 Results of the inhibitory effects of test compounds on the proliferation of FGFR2 background cell lines

Another data set concerns AN3CA. The data set is described as above. The conditions noted are these: read-out: IC50 value, inhibition of proliferation, 72-96 hours incubation. The procedure:
as §1, §2, §3, §4, §5, §6, §7

Another data set concerns MFE-296. The data set is described as above. Particulars: read-out: IC50 value, inhibition of proliferation, MFE-296, 72-96 hours incubation. The procedure:
as §1, §2, §3, §4, §5, §6, §7

Another data set deals with KATO III. Described as above. Particulars: read-out: IC50 value, inhibition of proliferation, 72-96 hours incubation. The procedure: as §1, §2, §3, §4, §5, §6, §7
A further data set concerns SUM52PE. The description is as above. Particulars: read-out: IC50 value, inhibition of proliferation, 72-96 hours incubation. The protocol:
as §1, §2, §3, §4, §5, §6, §7

The next data set relates to NCI-H716. Described as above. The conditions noted are these: read-out: IC50 value, inhibition of proliferation, NCI-H716, 72-96 hours incubation. The procedure:
as §1, §2, §3, §4, §5, §6, §7

The next data set deals with MFM223. The description is as above. The conditions noted are these: read-out: IC50 value, inhibition of proliferation, MFM223, 72-96 hours incubation. The protocol: as §1, §2, §3, §4, §5, §6, §7

Structures can show the parent of a compound that is named as a salt.

As to `C=C(C)C(=O)Nc1ccc(-c2c(-c3ccc(N=S4(=O)CCCC4)cc3)c3c(N)ncnc3n2C)c(F)c1` [hydrochloride crystal form I of the compound of Formula I-1], the “physical stability (change in total impurities or crystal form)” value in [1] (25 °C/60% RH open container, one week, 60 °C sealed container) is “no change in total impurities or crystal form”. Also, the “Solid (XRPD)” value was “Hydrochloride crystal form I (no change)” in data set [1] (25°C/60% RH, open container) and “Hydrochloride crystal form I (no change)” in [1] (60°C, sealed container). In addition, the “Purity, Solid (HPLC)” value in [1] (25°C/60% RH, open container) turned out to be 99.5%; in data set [1] (60°C, sealed container), 99.6%. The Color result in data set [1] (25°C/60% RH, open container) is “No color change”; in data set [1] (60°C, sealed container) it was “No color change”. Also, the “pH of the supernatant” value is listed as 1.56 in [2] (FaSSGF, pH 1.6, 37°C, 24 h); 6.18 in data set [2] (FaSSIF-v1, pH 6.5, 37°C, 24 h); 4.90 in data set [2] (FeSSIF-v1, pH 5.0, 37°C, 24 h); 2.55 in [2] (Water, 37°C, 24 h). The “Residual solid XRPD” value in [2] (FaSSIF-v1, pH 6.5, 37°C) is listed as “Free-base form A”; in data set [2] (FeSSIF-v1, pH 5.0, 37°C) it was “Free-base form A”; in data set [2] (Water, 37°C), “Free-base form A”.
In the case of `C=C(C)C(=O)Nc1ccc(-c2c(-c3ccc(N=S4(=O)CCCC4)cc3)c3c(N)ncnc3n2C)c(F)c1`, the IC50 is 3 nM with SNU-16; 9.9 nM in the data set on AN3CA; 14.9 nM with MFE-296; 0.8 nM in the data set with KATO III; 6.2 nM in the data set with SUM52PE; 2.4 nM in the data set with NCI-H716. In addition, the IC50 in the data set on MFM223 was found to be 1 nM.
In general, Solubility refers to the dissolved amount per volume that the medium holds. `C=C(C)C(=O)Nc1ccc(-c2c(-c3ccc(N=S4(=O)CCCC4)cc3)c3c(N)ncnc3n2C)c(F)c1` [free-base crystal form A of compound of formula I-1]: the Solubility is 380 µg/mL in data set [2] (FaSSGF, pH 1.6, 37°C, 2 h); 420 µg/mL in [2] (FaSSGF, pH 1.6, 37°C, 24 h); 0.4 µg/mL in [2] (FaSSIF-v1, pH 6.5, 37°C, 2 h); 1.1 µg/mL in [2] (FaSSIF-v1, pH 6.5, 37°C, 24 h); 4.5 µg/mL in data set [2] (FeSSIF-v1, pH 5.0, 37°C, 2 h); 6.6 µg/mL in data set [2] (FeSSIF-v1, pH 5.0, 37°C, 24 h). Further, the Solubility in [2] (Water, 37°C, 2 h) was 1.2 µg/mL; in data set [2] (Water, 37°C, 24 h), 1.3 µg/mL. Further, the “pH of the supernatant” value in data set [2] (FaSSGF, pH 1.6, 37°C, 24 h) is recorded as 1.55; in [2] (FaSSIF-v1, pH 6.5, 37°C, 24 h), 6.50; in [2] (FeSSIF-v1, pH 5.0, 37°C, 24 h), 4.97; in data set [2] (Water, 37°C, 24 h), 7.72. In addition, the “Residual solid XRPD” value in [2] (FaSSGF, pH 1.6, 37°C) is recorded as “Free-base form A”; in data set [2] (FaSSIF-v1, pH 6.5, 37°C) it was “Free-base form A”; in [2] (FeSSIF-v1, pH 5.0, 37°C) it was “Free-base form A”; in [2] (Water, 37°C), “Free-base form A”.
